Values quoted from earlier work in patent US9333241B2, “Thyroid-stimulating hormone receptor polypeptide agonist glycoforms to treat metabolic syndrome” (LipoLytics Therapeutics, LLC, priority 2005, dated 2016).
Blank lines part the entries; values can stand above or below the substance they belong to.

Amino acid sequences for entries named in this document (tags omitted). Residues count along the entry.
UniProt P16473, 21-764: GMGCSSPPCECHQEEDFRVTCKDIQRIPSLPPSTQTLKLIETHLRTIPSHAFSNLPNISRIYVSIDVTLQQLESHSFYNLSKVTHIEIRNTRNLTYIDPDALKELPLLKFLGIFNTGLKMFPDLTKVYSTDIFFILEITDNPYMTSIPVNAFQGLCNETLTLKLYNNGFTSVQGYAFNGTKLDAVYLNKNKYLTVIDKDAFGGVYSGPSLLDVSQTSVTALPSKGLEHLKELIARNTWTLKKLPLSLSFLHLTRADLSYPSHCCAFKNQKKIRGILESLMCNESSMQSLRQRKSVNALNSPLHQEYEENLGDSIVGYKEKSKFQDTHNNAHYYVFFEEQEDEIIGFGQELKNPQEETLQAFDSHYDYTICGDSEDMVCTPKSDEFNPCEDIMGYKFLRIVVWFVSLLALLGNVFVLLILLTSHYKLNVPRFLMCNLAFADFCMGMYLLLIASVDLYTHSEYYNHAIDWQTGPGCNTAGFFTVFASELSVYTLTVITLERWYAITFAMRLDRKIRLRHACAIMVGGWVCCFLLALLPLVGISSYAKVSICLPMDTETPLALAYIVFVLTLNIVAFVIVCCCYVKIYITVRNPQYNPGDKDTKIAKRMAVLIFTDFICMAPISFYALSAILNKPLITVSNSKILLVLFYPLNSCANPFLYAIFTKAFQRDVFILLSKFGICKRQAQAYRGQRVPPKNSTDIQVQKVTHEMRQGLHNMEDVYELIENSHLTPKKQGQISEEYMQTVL

Key:
thyroid TSHR = thyroid TSHR (Homo sapiens, UniProt P16473); settings: relative to non-sialylated glycoforms
[1] = system: rodent models of the metabolic syndrome; settings: recombinant glycoproteins produced in CHO cells
[2] = relative to sialylated TSH

intrinsic activity (in vitro activity), lower than non-sialylated glycoforms (thyroid TSHR): 4-20 fold
Substance: sialylated forms of TSH: TSH glycoforms having terminal sialic acid

Substance: rhTSH: Recombinant human TSH (Thyrogen®, Genzyme Corporation)
mean apparent elimination half-life (humans): 25 ± 10 h
metabolic clearance rate (MCR) compared with human pituitary-derived TSH (humans): much lower
time serum concentrations are significantly elevated after injection (single injection of approximately 30 μg/kg in human subjects): up to 24 hours

Substance: TSH: thyroid-stimulating hormone produced by recombinant DNA methods in CHO cells
effect of treatment in rodents [1]: improved glucose and lipid profiles and in reversed liver steatosis

Substance: Asialylated TSH: homogenous, desialylated TSH prepared from rhTSH with neuraminidase
clearance from serum, faster than sialylated TSH [2]: 10-100 fold
